Test system: normal human melanocytes or fibroblast cells

Selenocoxib-1
toxicity on normal cells relative to melanoma cells: reduces normal cell growth with IC50s similar to that of melanoma cells

— patent publication US9918966B2, “Anti-cancer compositions and methods” (The Penn State Research Foundation, priority 2013, dated 2018)
